Data on one compound can be found in patent US20110245223A1, “HETEROCYCLIC COMPOUNDS” (Japan Tobacco Inc., priority 2005, published 2011).

Chains of the proteins cited; added tags and fusions are not shown.
UniProt P28845, whole entry: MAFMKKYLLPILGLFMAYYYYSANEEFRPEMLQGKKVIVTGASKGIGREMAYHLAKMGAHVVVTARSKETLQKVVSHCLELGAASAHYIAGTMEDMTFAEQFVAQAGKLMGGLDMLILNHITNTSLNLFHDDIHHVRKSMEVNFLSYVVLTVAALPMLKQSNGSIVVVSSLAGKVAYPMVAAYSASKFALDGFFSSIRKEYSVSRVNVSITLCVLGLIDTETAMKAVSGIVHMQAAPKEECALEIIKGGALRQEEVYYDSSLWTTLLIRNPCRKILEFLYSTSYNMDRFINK

In the test the target is human HSD-1 (recombinant HSD-1) (Homo sapiens, UniProt P28845). Put plainly: HSD-1 (hydroxysteroid dehydrogenase 1) activity inhibitory action in vitro, SPA, conversion of cortisone to cortisol. Particulars: read-out: hHSD1 (IC50 (nM)), recombinant human HSD-1 expressed using baculovirus system, 10 nM 3H cortisone, 500 μM NADPH, room temperature 90 to 120 min.

As usually defined, the IC50 is the concentration that gives 50% inhibition. Consider `CCONC(=O)N1CCC(n2ncc(C(=O)N3CCC(c4ccccc4C(F)(F)F)C3)c2C2(C)CC2)CC1` (stereo not shown), for which the IC50 is < 30 nM.
